# Test results taken from patent publication EP4834897A1, “COMPOUNDS WITH TWO AZAHETEROCYCLES SUBSTITUTED ISOINDOLINONE SKELETON AND USES THEREOF” (dated 2026).
# Chains of the proteins cited; added tags and fusions are not shown.
# UniProt Q96SW2, whole entry: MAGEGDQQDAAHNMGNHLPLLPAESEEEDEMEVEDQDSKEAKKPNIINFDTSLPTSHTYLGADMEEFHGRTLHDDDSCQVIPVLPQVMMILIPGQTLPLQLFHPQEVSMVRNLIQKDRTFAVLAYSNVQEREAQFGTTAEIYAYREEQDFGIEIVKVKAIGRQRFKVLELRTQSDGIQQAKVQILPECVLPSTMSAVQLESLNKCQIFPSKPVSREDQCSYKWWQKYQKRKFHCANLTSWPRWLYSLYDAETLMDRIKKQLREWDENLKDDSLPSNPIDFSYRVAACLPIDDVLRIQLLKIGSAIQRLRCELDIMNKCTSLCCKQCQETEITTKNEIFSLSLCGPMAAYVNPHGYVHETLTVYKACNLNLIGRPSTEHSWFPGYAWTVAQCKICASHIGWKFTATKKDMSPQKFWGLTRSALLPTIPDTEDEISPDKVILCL
# UniProt P48729, whole entry: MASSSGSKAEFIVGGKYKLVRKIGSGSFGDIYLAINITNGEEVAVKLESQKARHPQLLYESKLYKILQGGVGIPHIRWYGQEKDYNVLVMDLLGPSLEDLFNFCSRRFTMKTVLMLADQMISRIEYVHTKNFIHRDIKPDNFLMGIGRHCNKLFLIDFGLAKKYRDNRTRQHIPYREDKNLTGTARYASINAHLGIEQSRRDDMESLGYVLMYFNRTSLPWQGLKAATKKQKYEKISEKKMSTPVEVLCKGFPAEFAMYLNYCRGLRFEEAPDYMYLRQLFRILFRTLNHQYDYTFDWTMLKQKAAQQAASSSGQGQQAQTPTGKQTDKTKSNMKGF
# UniProt P15170, whole entry: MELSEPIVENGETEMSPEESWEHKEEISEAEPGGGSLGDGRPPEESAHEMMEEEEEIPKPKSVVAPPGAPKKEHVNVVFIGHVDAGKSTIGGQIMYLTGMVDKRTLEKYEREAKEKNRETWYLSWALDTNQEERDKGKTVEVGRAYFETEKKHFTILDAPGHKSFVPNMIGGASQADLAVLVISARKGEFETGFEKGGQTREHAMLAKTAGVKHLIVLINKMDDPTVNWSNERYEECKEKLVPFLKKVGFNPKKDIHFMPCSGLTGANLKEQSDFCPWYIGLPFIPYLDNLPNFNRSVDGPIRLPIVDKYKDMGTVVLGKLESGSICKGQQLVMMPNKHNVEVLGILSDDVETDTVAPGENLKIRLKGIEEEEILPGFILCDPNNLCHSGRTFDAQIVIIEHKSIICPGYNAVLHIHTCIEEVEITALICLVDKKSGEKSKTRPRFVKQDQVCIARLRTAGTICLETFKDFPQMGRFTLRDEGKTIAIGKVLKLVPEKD
# UniProt Q13422, whole entry: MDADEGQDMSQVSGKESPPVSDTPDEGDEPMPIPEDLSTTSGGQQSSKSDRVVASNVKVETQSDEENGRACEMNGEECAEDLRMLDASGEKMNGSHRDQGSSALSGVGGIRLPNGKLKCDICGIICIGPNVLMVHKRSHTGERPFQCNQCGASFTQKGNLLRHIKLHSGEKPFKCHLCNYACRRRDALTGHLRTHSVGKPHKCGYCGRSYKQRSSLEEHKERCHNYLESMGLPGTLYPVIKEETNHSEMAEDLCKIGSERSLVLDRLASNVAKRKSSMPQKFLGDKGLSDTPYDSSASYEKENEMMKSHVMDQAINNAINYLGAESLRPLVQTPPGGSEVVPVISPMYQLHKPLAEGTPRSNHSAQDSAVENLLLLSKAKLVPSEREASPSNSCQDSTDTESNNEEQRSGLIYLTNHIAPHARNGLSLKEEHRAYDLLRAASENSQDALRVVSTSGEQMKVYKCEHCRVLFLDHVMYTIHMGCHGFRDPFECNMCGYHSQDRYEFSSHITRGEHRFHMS
# UniProt Q9UKS7, whole entry: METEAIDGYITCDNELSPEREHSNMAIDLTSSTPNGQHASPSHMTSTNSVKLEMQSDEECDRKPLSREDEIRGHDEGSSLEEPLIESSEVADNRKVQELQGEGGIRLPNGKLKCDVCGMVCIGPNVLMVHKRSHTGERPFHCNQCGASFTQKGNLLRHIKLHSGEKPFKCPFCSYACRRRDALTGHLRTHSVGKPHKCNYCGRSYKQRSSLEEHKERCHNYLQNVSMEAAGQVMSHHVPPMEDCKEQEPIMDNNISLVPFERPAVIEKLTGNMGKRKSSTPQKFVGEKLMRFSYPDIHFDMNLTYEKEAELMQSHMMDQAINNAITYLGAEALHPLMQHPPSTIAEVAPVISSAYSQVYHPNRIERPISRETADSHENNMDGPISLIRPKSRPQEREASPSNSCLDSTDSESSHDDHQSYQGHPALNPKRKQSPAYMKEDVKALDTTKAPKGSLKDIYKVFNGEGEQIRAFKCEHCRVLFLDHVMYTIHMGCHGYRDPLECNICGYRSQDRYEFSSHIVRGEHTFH
# UniProt Q9UKT9, whole entry: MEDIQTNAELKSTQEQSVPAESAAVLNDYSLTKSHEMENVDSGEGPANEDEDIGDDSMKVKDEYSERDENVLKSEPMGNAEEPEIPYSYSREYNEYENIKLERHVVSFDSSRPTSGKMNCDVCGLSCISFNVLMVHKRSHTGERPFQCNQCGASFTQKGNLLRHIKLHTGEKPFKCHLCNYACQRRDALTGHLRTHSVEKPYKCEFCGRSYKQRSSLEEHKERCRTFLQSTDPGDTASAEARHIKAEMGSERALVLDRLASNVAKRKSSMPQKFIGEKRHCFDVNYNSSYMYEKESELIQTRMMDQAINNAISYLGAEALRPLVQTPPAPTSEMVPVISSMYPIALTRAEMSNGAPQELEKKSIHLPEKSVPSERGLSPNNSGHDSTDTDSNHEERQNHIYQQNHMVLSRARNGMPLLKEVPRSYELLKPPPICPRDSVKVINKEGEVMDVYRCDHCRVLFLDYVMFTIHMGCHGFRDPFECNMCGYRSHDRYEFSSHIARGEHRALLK
# UniProt P30291, whole entry: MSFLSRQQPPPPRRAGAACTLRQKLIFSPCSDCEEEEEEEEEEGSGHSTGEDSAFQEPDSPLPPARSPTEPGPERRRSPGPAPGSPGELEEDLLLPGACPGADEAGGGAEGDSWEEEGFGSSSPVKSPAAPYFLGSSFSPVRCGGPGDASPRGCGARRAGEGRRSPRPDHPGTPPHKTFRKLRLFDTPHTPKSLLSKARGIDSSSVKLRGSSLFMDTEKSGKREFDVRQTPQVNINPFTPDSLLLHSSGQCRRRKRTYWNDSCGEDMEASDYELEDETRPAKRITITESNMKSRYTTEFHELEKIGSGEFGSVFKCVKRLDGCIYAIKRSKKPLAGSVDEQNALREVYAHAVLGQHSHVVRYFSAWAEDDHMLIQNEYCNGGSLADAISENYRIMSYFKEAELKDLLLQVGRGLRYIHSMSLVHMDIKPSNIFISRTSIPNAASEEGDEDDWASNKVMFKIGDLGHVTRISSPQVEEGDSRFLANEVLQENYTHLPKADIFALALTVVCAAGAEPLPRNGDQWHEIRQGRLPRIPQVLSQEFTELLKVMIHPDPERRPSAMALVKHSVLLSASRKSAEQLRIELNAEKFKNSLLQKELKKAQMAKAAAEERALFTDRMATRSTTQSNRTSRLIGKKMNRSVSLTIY
# UniProt Q16531, whole entry partner: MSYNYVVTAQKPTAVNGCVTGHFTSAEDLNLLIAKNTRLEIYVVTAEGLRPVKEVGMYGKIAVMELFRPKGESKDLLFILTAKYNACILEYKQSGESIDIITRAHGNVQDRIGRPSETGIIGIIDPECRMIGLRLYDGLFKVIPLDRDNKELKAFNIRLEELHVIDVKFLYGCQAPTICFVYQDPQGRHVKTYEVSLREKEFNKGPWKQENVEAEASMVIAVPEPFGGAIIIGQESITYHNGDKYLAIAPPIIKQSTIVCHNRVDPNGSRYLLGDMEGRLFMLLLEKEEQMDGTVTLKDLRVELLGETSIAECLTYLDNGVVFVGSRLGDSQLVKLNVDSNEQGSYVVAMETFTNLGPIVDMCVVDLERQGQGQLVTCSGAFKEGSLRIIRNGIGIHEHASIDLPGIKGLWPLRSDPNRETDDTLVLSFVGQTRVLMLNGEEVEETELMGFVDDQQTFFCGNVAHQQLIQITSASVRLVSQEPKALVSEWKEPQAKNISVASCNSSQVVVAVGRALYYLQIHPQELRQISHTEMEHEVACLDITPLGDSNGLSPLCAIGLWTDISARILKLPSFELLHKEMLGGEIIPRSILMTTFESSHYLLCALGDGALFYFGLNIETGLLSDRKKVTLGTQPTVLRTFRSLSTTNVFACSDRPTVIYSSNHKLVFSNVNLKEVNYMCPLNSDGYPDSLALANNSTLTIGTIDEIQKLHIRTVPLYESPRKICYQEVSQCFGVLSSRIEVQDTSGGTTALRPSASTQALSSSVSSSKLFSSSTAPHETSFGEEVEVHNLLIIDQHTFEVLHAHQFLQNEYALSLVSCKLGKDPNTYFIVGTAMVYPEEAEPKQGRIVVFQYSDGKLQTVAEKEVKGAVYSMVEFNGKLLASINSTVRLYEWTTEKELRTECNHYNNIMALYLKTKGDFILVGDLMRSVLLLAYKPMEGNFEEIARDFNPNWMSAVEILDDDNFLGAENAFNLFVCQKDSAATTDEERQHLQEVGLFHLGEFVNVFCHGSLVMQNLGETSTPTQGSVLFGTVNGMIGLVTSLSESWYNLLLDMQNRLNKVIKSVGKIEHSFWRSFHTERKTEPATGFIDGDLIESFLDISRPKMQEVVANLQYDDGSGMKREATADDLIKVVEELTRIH
# System: Human acute T lymphocytic leukemia cell (Molt4)
# Assay: Tumor cell proliferation inhibition (cell viability assay)
# Details: Molt4 cells; 10 nM; 96 hours
row,Structure (SMILES),Inhibition Rate at 10 nM (%)
1,O=C1CCC(N2Cc3cc(CN4CCC(N5CCN(C(c6ccccc6)c6ccccn6)CC5)C(F)(F)C4)c(F)cc3C2=O)C(=O)N1 (centres unmarked),1c4 (10% ≤ 1c4 < 20%)
2,O=C1CCC(N2Cc3cc(CN4CCC(N5CCN(c6cccc(Cl)c6Cl)CC5)C(F)(F)C4)ccc3C2=O)C(=O)N1 (centres unmarked),1c5 (20% ≤ 1c5 < 30%)

# Same assay, conditions: Molt4 cells; 500 nM; 96 hours
row,Structure (SMILES),Inhibition Rate at 500 nM (%)
1,O=C1CCC(N2Cc3cc(CN4CCC(N5CCN(C(c6ccccc6)c6ccccn6)CC5)C(F)(F)C4)c(F)cc3C2=O)C(=O)N1 (centres unmarked),1c11 (80% ≤ 1c11 ≤ 100%)
2,O=C1CCC(N2Cc3cc(CN4CCC(N5CCN(c6cccc(Cl)c6Cl)CC5)C(F)(F)C4)ccc3C2=O)C(=O)N1 (centres unmarked),1c11 (80% ≤ 1c11 ≤ 100%)

# System: Human colon cancer cell (SW620)
# Assay: as above
# Details: SW620 cells; 10 nM; 96 hours
row,Structure (SMILES),Inhibition Rate at 10 nM (%)
1,O=C1CCC(N2Cc3cc(CN4CCC(N5CCN(C(c6ccccc6)c6ccccn6)CC5)C(F)(F)C4)c(F)cc3C2=O)C(=O)N1 (centres unmarked),1d4 (20% ≤ 1d4 < 30%)
2,O=C1CCC(N2Cc3cc(CN4CCC(N5CCN(c6cccc(Cl)c6Cl)CC5)C(F)(F)C4)ccc3C2=O)C(=O)N1 (centres unmarked),1d1 (0 < 1d1 < 5%)

# Same assay, conditions: SW620 cells; 500 nM; 96 hours
row,Structure (SMILES),Inhibition Rate at 500 nM (%)
1,O=C1CCC(N2Cc3cc(CN4CCC(N5CCN(C(c6ccccc6)c6ccccn6)CC5)C(F)(F)C4)c(F)cc3C2=O)C(=O)N1 (centres unmarked),1d9 (70% ≤ 1d9 < 80%)
2,O=C1CCC(N2Cc3cc(CN4CCC(N5CCN(c6cccc(Cl)c6Cl)CC5)C(F)(F)C4)ccc3C2=O)C(=O)N1 (centres unmarked),1d6 (40% ≤ 1d6 < 50%)

# System: Human mantle cell lymphoma cell line (JEKO-1)
# Assay: as above
# Details: JEKO-1 cells; 10 nM; 96 hours
row,Structure (SMILES),Inhibition Rate at 10 nM (%)
1,O=C1CCC(N2Cc3cc(CN4CCC(N5CCN(C(c6ccccc6)c6ccccn6)CC5)C(F)(F)C4)c(F)cc3C2=O)C(=O)N1 (centres unmarked),1g2 (5% ≤ 1g2 < 10%)
2,O=C1CCC(N2Cc3cc(CN4CCC(N5CCN(c6cccc(Cl)c6Cl)CC5)C(F)(F)C4)ccc3C2=O)C(=O)N1 (centres unmarked),1g2 (5% ≤ 1g2 < 10%)

# Same assay, conditions: JEKO-1 cells; 500 nM; 96 hours
row,Structure (SMILES),Inhibition Rate at 500 nM (%)
1,O=C1CCC(N2Cc3cc(CN4CCC(N5CCN(C(c6ccccc6)c6ccccn6)CC5)C(F)(F)C4)c(F)cc3C2=O)C(=O)N1 (centres unmarked),1g6 (40% ≤ 1g6 < 50%)
2,O=C1CCC(N2Cc3cc(CN4CCC(N5CCN(c6cccc(Cl)c6Cl)CC5)C(F)(F)C4)ccc3C2=O)C(=O)N1 (centres unmarked),1g6 (40% ≤ 1g6 < 50%)

# System: Human multiple myeloma cell (MM.1S)
# Assay: as above
# Details: MM.1S cells; 10 nM; 96 hours
row,Structure (SMILES),Inhibition Rate at 10 nM (%)
1,O=C1CCC(N2Cc3cc(CN4CCC(N5CCN(C(c6ccccc6)c6ccccn6)CC5)C(F)(F)C4)c(F)cc3C2=O)C(=O)N1 (centres unmarked),1b4 (20% ≤ 1b4 < 32%)
2,O=C1CCC(N2Cc3cc(CN4CCC(N5CCN(c6cccc(Cl)c6Cl)CC5)C(F)(F)C4)ccc3C2=O)C(=O)N1 (centres unmarked),1b7 (50% ≤ 1b7 < 60%)

# Same assay, conditions: MM.1S cells; 500 nM; 96 hours
row,Structure (SMILES),Inhibition Rate at 500 nM (%)
1,O=C1CCC(N2Cc3cc(CN4CCC(N5CCN(C(c6ccccc6)c6ccccn6)CC5)C(F)(F)C4)c(F)cc3C2=O)C(=O)N1 (centres unmarked),1b10 (80% ≤ 1b10 ≤ 100%)
2,O=C1CCC(N2Cc3cc(CN4CCC(N5CCN(c6cccc(Cl)c6Cl)CC5)C(F)(F)C4)ccc3C2=O)C(=O)N1 (centres unmarked),1b10 (80% ≤ 1b10 ≤ 100%)

# System: Human myeloid monocytic leukemia cell (MV-4-11)
# Assay: as above
# Details: MV-4-11 cells; 10 nM; 96 hours
row,Structure (SMILES),Inhibition Rate at 10 nM (%)
1,O=C1CCC(N2Cc3cc(CN4CCC(N5CCN(C(c6ccccc6)c6ccccn6)CC5)C(F)(F)C4)c(F)cc3C2=O)C(=O)N1 (centres unmarked),1a4 (20% ≤ 1a4 < 30%)
2,O=C1CCC(N2Cc3cc(CN4CCC(N5CCN(c6cccc(Cl)c6Cl)CC5)C(F)(F)C4)ccc3C2=O)C(=O)N1 (centres unmarked),1a6 (40% < 1a6 < 50%)

# Same assay, conditions: MV-4-11 cells; 500 nM; 96 hours
row,Structure (SMILES),Inhibition Rate at 500 nM (%)
1,O=C1CCC(N2Cc3cc(CN4CCC(N5CCN(C(c6ccccc6)c6ccccn6)CC5)C(F)(F)C4)c(F)cc3C2=O)C(=O)N1 (centres unmarked),1a10 (80% ≤ 1a10 < 100%)
2,O=C1CCC(N2Cc3cc(CN4CCC(N5CCN(c6cccc(Cl)c6Cl)CC5)C(F)(F)C4)ccc3C2=O)C(=O)N1 (centres unmarked),1a10 (80% ≤ 1a10 < 100%)

# Target: CRBN (Homo sapiens, UniProt Q96SW2)
# Assay: CRBN binding affinity by HTRF (CEREBLON BINDING kit)
# Details: CRBN binding, HTRF, compound at 0.5 µM
row,Structure (SMILES),Inhibition Rate at 0.5 µM (%)
1,O=C1CCC(N2Cc3cc(CN4CCC(N5CCN(C(c6ccccc6)c6ccccn6)CC5)C(F)(F)C4)c(F)cc3C2=O)C(=O)N1 (centres unmarked),a5 (53% < a5 ≤ 60%)

# Same assay, conditions: CRBN binding, HTRF, compound at 2 µM
row,Structure (SMILES),Inhibition Rate at 2 µM (%)
1,O=C1CCC(N2Cc3cc(CN4CCC(N5CCN(C(c6ccccc6)c6ccccn6)CC5)C(F)(F)C4)c(F)cc3C2=O)C(=O)N1 (centres unmarked),a7 (70% < a7 ≤80%)

# Same assay, conditions: read-out: HTRF IC50; human Cereblon WT GST-tagged protein; 3 hours at room temperature
row,Structure (SMILES),IC50
1,O=C1CCC(N2Cc3cc(CN4CCC(N5CCN(c6cccc(Cl)c6Cl)CC5)C(F)(F)C4)ccc3C2=O)C(=O)N1 (centres unmarked),0.1 to 0.5 µM

# Target: CK1α (Homo sapiens, UniProt P48729+Q96SW2)
# Assay: Western blot assay of substrate protein degradation in hPBMCs
# Details: 24 hours treatment, compounds at 50 nM and 500 nM (concentration behind the class not stated)
row,Structure (SMILES),substrate protein remaining % (CK1a)
1,O=C1CCC(N2Cc3cc(CN4CCC(N5CCN(C(c6ccccc6)c6ccccn6)CC5)C(F)(F)C4)c(F)cc3C2=O)C(=O)N1 (centres unmarked),A (0% ≤ substrate protein remaining % ≤ 80%)
2,O=C1CCC(N2Cc3cc(CN4CCC(N5CCN(c6cccc(Cl)c6Cl)CC5)C(F)(F)C4)ccc3C2=O)C(=O)N1 (centres unmarked),B (80%< substrate protein remaining %≤ 100%)

# Target: GSPT1 (Homo sapiens, UniProt P15170+Q96SW2)
# Assay: as above
# Details: 24 hours treatment, compounds at 50 nM and 500 nM (concentration behind the class not stated)
row,Structure (SMILES),substrate protein remaining % (GSPT1)
1,O=C1CCC(N2Cc3cc(CN4CCC(N5CCN(C(c6ccccc6)c6ccccn6)CC5)C(F)(F)C4)c(F)cc3C2=O)C(=O)N1 (centres unmarked),A (0% ≤ substrate protein remaining % ≤ 80%)
2,O=C1CCC(N2Cc3cc(CN4CCC(N5CCN(c6cccc(Cl)c6Cl)CC5)C(F)(F)C4)ccc3C2=O)C(=O)N1 (centres unmarked),A (0% ≤ substrate protein remaining % ≤ 80%)

# Target: IKZF1 (Homo sapiens, UniProt Q13422+Q96SW2)
# Assay: as above
# Details: 24 hours treatment, compounds at 50 nM and 500 nM (concentration behind the class not stated)
row,Structure (SMILES),substrate protein remaining % (IKZF 1)
1,O=C1CCC(N2Cc3cc(CN4CCC(N5CCN(C(c6ccccc6)c6ccccn6)CC5)C(F)(F)C4)c(F)cc3C2=O)C(=O)N1 (centres unmarked),A (0% ≤ substrate protein remaining % ≤ 80%)
2,O=C1CCC(N2Cc3cc(CN4CCC(N5CCN(c6cccc(Cl)c6Cl)CC5)C(F)(F)C4)ccc3C2=O)C(=O)N1 (centres unmarked),A (0% ≤ substrate protein remaining % ≤ 80%)

# Target: IKZF2 (Homo sapiens, UniProt Q96SW2+Q9UKS7)
# Assay: as above
# Details: 24 hours treatment, compounds at 50 nM and 500 nM (concentration behind the class not stated)
row,Structure (SMILES),substrate protein remaining % (IKZF2)
1,O=C1CCC(N2Cc3cc(CN4CCC(N5CCN(C(c6ccccc6)c6ccccn6)CC5)C(F)(F)C4)c(F)cc3C2=O)C(=O)N1 (centres unmarked),A (0% ≤ substrate protein remaining % ≤ 80%)
2,O=C1CCC(N2Cc3cc(CN4CCC(N5CCN(c6cccc(Cl)c6Cl)CC5)C(F)(F)C4)ccc3C2=O)C(=O)N1 (centres unmarked),A (0% ≤ substrate protein remaining % ≤ 80%)

# Target: IKZF3 (Homo sapiens, UniProt Q96SW2+Q9UKT9)
# Assay: as above
# Details: 24 hours treatment, compounds at 50 nM and 500 nM (concentration behind the class not stated)
row,Structure (SMILES),substrate protein remaining % (IKZF3)
1,O=C1CCC(N2Cc3cc(CN4CCC(N5CCN(C(c6ccccc6)c6ccccn6)CC5)C(F)(F)C4)c(F)cc3C2=O)C(=O)N1 (centres unmarked),A (0% ≤ substrate protein remaining % ≤ 80%)
2,O=C1CCC(N2Cc3cc(CN4CCC(N5CCN(c6cccc(Cl)c6Cl)CC5)C(F)(F)C4)ccc3C2=O)C(=O)N1 (centres unmarked),A (0% ≤ substrate protein remaining % ≤ 80%)

# Target: WEE1 (Homo sapiens, UniProt P30291+Q96SW2)
# Assay: as above
# Details: 24 hours treatment, compounds at 50 nM and 500 nM (concentration behind the class not stated)
row,Structure (SMILES),substrate protein remaining % (WEE1)
1,O=C1CCC(N2Cc3cc(CN4CCC(N5CCN(C(c6ccccc6)c6ccccn6)CC5)C(F)(F)C4)c(F)cc3C2=O)C(=O)N1 (centres unmarked),A (0% ≤ substrate protein remaining % ≤ 80%)
2,O=C1CCC(N2Cc3cc(CN4CCC(N5CCN(c6cccc(Cl)c6Cl)CC5)C(F)(F)C4)ccc3C2=O)C(=O)N1 (centres unmarked),A (0% ≤ substrate protein remaining % ≤ 80%)
